Data on one compound can be found in ChEMBL document CHEMBL1140006, “2-Cycloalkyl phenoxyacetic acid CRTh2 receptor antagonists” (Bioorg Med Chem Lett, 2007).

The species named for this data set is Homo sapiens. The data set can be described thus: Protein binding in human plasma. To be noted: read-out: PPB.

For `O=C(O)COc1ccc(Cl)cc1C1CCCCCC1`, the fraction unbound is less than 0.001.
